Here are results for two compounds from ChEMBL document CHEMBL1743341, “Cytochrome p450 enzymes mechanism based inhibitors: common sub-structures and reactivity” (Curr Drug Metab, 2005).

Sequences of proteins named here, by UniProt entry; tags and fusion partners are left off.
UniProt P10632, whole entry: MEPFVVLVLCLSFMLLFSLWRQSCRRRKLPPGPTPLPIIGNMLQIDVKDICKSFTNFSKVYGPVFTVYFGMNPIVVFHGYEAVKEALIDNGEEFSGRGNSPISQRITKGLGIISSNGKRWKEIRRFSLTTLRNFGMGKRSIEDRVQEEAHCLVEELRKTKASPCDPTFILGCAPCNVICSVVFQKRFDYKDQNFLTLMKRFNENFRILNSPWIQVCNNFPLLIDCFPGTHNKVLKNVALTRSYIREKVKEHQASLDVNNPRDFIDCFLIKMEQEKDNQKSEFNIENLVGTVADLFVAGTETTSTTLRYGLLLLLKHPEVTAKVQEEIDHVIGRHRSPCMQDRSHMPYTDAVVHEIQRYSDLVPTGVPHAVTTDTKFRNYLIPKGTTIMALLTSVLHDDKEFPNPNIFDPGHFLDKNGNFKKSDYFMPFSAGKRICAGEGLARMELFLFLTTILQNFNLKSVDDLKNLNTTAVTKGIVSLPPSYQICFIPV

One data set deals with Cytochrome P450 3A4 (Homo sapiens, UniProt P08684). Description: Mechanism based inhibition of human cytochrome P450 3A4 measured by midazolam hydroxylase activity. It is filed as ADME.
The next data set concerns the target Cytochrome P450 2C8 (Homo sapiens, UniProt P10632).
A further data set concerns the target CYP2C8 (Homo sapiens, UniProt P10632). Description: in vitro. The conditions noted are these: recombinant CYP2C8, probe paclitaxel.
In another data set the target is T1, Cytochrome P450 3A2 (Rattus norvegicus, UniProt P05183).
T1 sequence (P05183 whole entry): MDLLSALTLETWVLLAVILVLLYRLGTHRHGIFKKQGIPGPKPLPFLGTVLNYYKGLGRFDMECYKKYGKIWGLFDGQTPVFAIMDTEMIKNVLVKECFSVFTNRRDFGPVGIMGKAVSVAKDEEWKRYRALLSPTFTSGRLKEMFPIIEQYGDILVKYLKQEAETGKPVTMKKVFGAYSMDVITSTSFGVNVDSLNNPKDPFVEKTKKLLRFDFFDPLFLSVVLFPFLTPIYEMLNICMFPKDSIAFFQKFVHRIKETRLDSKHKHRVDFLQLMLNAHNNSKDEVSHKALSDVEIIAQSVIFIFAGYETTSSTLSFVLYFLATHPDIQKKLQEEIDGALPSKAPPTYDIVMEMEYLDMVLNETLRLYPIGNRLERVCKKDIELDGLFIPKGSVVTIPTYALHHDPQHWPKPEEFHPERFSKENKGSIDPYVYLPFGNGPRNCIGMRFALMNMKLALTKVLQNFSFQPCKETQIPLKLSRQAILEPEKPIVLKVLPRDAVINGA
Description: Mechanism based inhibition of rat cytochrome P450 CYP3A2. In kind it is ADME.

On to `CNCCC(Oc1ccc(C(F)(F)F)cc1)c1ccccc1` (centres undefined) [FLUOXETINE], for which the mechanism based inhibition result on Cytochrome P450 3A4 is reported as “Cytochrome P450 mechanistic inhibitor: PMID 10950845”. For the same compound, at Cytochrome P450 2C8, the Ki is 294 µM. In addition, the kinact at CYP2C8 is 0.00138 s⁻¹.

On to `COc1ccc2c(c1)c(CC(=O)O)c(C)n2C(=O)c1ccc(Cl)cc1` [INDOMETHACIN], for which, on Cytochrome P450 3A2, the mechanism based inhibition result is on record as “Cytochrome P450 mechanistic inhibitor: PMID 1187510”.
